Data published in ChEMBL document CHEMBL1275330, “Rational design, synthesis, and evaluation of new selective inhibitors of microbial class II (zinc dependent) fructose bis-phosphate aldolases” (J Med Chem, 2010).

Tests used:
[1] = substrate: O=C(COP(=O)(O)O)N(O)CCCCO; conditions: Oryctolagus cuniculus
[2] = substrate: O=C(COP(=O)(O)O)N(O)CCCCO; conditions: Helicobacter pylori
[3] = substrate: CCCCCC(=O)OCCCCN(O)C(=O)COP(=O)(O)O; conditions: Helicobacter pylori

B1: Fructose-bisphosphate aldolase A (Oryctolagus cuniculus), P00883 (protein)
chain: MPHSHPALTPEQKKELSDIAHRIVAPGKGILAADESTGSIAKRLQSIGTENTEENRRFYRQLLLTADDRVNPCIGGVILFHETLYQKADDGRPFPQVIKSKGGVVGIKVDKGVVPLAGTNGETTTQGLDGLSERCAQYKKDGADFAKWRCVLKIGEHTPSALAIMENANVLARYASICQQNGIVPIVEPEILPDGDHDLKRCQYVTEKVLAAVYKALSDHHIYLEGTLLKPNMVTPGHACTQKYSHEEIAMATVTALRRTVPPAVTGVTFLSGGQSEEEASINLNAINKCPLLKPWALTFSYGRALQASALKAWGGKKENLKAAQEEYVKRALANSLACQGKYTPSGQAGAAASESLFISNHAY
Km [1]: 400 µM

B2: Fructose-bisphosphate aldolase (Helicobacter pylori (strain ATCC 700392 / 26695) (Campylobacterpylori)), P56109 (protein)
chain: MLVKGNEILLKAHKEGYGVGAFNFVNFEMLNAIFEAGNEENSPLFIQTSEGAIKYMGIDMAVGMVKTMCERYPHIPVALHLDHGTTFESCEKAVKAGFTSVMIDASHHAFEENLELTSKVVKMAHNAGVSVEAELGRLMGIEDNISVDEKDAVLVNPKEAEQFVKESQVDYLAPAIGTSHGAFKFKGEPKLDFERLQEVKRLTNIPLVLHGASAIPDNVRKSYLDAGGDLKGSKGVPFEFLQESVKGGINKVNTDTDLRIAFIAEVRKVANEDKSQFDLRKFFSPAQLALKNVVKERMKLLGSANKI
Km [2]: 5.5 µM
Km [3]: 1 µM
